Data as given in the CATMoS acute toxicity set (Mansouri et al. 2021).

What was measured:
[1] = rat acute oral toxicity; conditions: in vivo
[2] = GHS categories as the set defines them, by LD50: 1 up to 5, 2 up to 50, 3 up to 300, 4 up to 2000, 5 above 2000 mg/kg; conditions: rat; in vivo; po

For `Cc1cc([N+](=O)[O-])cc([N+](=O)[O-])c1O`, which LD50 [1] is on record?
The LD50 was 7 mg/kg.

Which GHS category [2] does the source give for `COP(=O)(OC)c1ccccc1` here?
Its GHS category is 4.

Which LD50 [1] does the source give for `CCC(C)(C)OO` here?
Its LD50 is 483 mg/kg.

Which GHS category [2] does the source give for `CC1(C)COP(=S)(OP2(=S)OCC(C)(C)CO2)OC1` here?
Its GHS category is 5.

With `CC(C)C(=O)OOC(=O)C(C)C` as the compound, how does the GHS category [2] read?
Its GHS category is 5.

Which GHS category [2] does the source give for `O=P(Cl)(Oc1ccccc1)Oc1ccccc1` here?
The GHS category was 4.

With `CC(C)OP(=S)(OC(C)C)SCCNS(=O)(=O)c1ccccc1` as the compound, how does the LD50 [1] read?
Its LD50 is 270 mg/kg.

With `CN(SC(Cl)(Cl)C(Cl)Cl)C(=O)Oc1cccc2c1OC(C)(C)C2` as the compound, how does the GHS category [2] read?
Its GHS category is 3.

For `CCCCO[PH](=O)OCCCC`, which LD50 [1] is on record?
Its LD50 is 3200 mg/kg.
